Test results taken from ChEMBL document CHEMBL1687710, “Heterocyclic compounds that inhibit Rev-RRE function and human immunodeficiency virus type 1 replication” (Antimicrob Agents Chemother, 2008).

Test system: Human immunodeficiency virus 1
Assay: Ratio of EC50 for HIV1 Rev-mediated renilla luciferase expression to TC50 for HIV1 Rev-mediated firefly luciferase expression

## COc1ccc2nc(C(F)(F)F)c(C#N)c(N)c2c1
  Ratio: 10
